The test relates to human T-ALL lymphoblasts. In words: Cytokine/growth factor subtraction and IGF1R blockade, resazurin-reduction cell growth assay. The format is cell-based. Particulars: SCF, IGF-1, IL-2, IL-7 added alone or in combination, FIG. 3. As to the method: A resazurin-reduction cell growth assay was performed on (A-B) primary and (C) xenograft-expanded T-ALL. Cells were cultured and passaged as described in FIG. 1. Cytokines and growth factors were subtracted out of the complete media and cells were assayed for growth using a resazurin reduction assay. Data shown are a composite of passages 1 and 2. Significance: * p<0.05, ** p<0.01, and *** p<0.001.
Cell Titer Blue (Promega) was added to a co-culture, 5 μl/well for a 12-well plate and 1 μl/well for a 96-well plate, and allowed to incubate for 2-6 hours depending on the number and type of cells present in the well. Cultures were then analyzed using a Tecan GENios Flourometric plate reader. The plate reader was set to read from the bottom at 535 nm excitation and 590 nm emission wavelengths, at optimal gain with an integration time of 80 μs and a lag time of 0 μs. The plate was orbitally shaken in the machine for 5 sec prior to reading.
Studies were also conducted with human T-ALL primary cells (FIGS. 3A-3B) and human T-ALL cells that were previously expanded in immunodeficient NSG mice (FIG. 3C). SCF, IGF-1, IL-2, and IL-7 were either added alone or in combination, then cancer cell growth was measured. Results in FIG. 3 indicate that better growth was achieved when all four cytokines are added to the in vitro culture medium. […]
A general note: The colour change of resazurin is a common sign of viable cells or microbes.

On to “IL-2: ligand for the IL-2 receptor; recombinant cytokine supplement”, for which the “importance of the supplemental cytokine for T-ALL growth” value was “may improve growth of some tumors”.

The values are drawn from patent publication US9683217B2, “In vitro culture conditions for T-cell acute lymphoblastic leukemia/lymphoma” (THE UNIVERSITY OF MIAMI, priority 2013, dated 2017).
